# Results: paper PMC11024108
# Key:
# Assay in all cases: cross-link between two proteins; cross-linking mass spectrometry
# [1] = biological target: T1, 26S proteasome non-ATPase regulatory subunit 7 (UniProt P26516)
# T1 sequence: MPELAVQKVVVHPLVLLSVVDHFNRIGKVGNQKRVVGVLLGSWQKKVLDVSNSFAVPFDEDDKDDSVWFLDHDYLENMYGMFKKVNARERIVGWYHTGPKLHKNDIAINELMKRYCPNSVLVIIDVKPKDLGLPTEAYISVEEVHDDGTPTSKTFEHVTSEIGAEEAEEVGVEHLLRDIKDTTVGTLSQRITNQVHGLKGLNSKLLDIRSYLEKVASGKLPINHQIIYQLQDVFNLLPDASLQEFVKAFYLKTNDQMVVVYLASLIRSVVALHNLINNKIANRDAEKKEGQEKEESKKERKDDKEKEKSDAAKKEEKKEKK
# [2] = biological target: NADH dehydrogenase [ubiquinone] 1 alpha subcomplex subunit 7 (UniProt Q9Z1P6)
# [3] = tested on: Serine/threonine-protein kinase mTOR
substance,measurement,setting,value
Ubiquitin C-terminal hydrolase PSMD14,listed as a hit,[1],yes
"NADH dehydrogenase [ubiquinone] iron-sulfur protein 2, mitochondrial, Q91WD5",listed as a hit,[2],yes
"Regulatory-associated protein of mTOR, Q8K4Q0",listed as a hit,[3],yes
